System: not listed separately
Assay: Selectivity index, ratio of IC50 for HIV integrase to IC50 for inhibition of RNase H activity of full length recombinant HIV1 reverse transcriptase
In the case of `Cn1c(Nc2cccc(-c3cccc(C#N)c3)c2)cc(=O)n(O)c1=O`, the Ratio IC50 is reported as 6.5.
Work on `COc1cccc(-c2cccc(Nc3cc(=O)n(O)c(=O)n3C)c2)c1` yielded a Ratio IC50 of 7.7.
Work on `Cc1noc(C)c1-c1ccc(Nc2cc(=O)n(O)c(=O)n2C)cc1` yielded a Ratio IC50 of 16.
Work on `Cn1c(Oc2ccc(-c3ccc(O)cc3)cc2)cc(=O)n(O)c1=O` yielded a Ratio IC50 of 5.5.
In the case of `Cc1ccc(-c2ccc(Nc3cc(=O)n(O)c(=O)[nH]3)cc2)cc1`, the Ratio IC50 is reported as 230 to 233.
Work on `COc1ccc(-c2ccc(Nc3cc(=O)n(O)c(=O)n3C)cc2)cc1` yielded a Ratio IC50 of 1.1.
With `COc1ccc(-c2cccc(Nc3cc(=O)n(O)c(=O)[nH]3)c2)cc1` the Ratio IC50 was greater than 500.
`COc1ccc(-c2ccccc2Oc2cc(=O)n(O)c(=O)n2C)cc1` showed a Ratio IC50 of 0.43.
With `O=c1cc(Nc2cccc(-c3ccc(F)cc3)c2)[nH]c(=O)n1O` the Ratio IC50 was greater than 500.
With `Cc1ccc(-c2cccc(Nc3cc(=O)n(O)c(=O)[nH]3)c2)cc1` the Ratio IC50 was 116.
`Cn1c(Oc2cccc(-c3cccc(O)c3)c2)cc(=O)n(O)c1=O` showed a Ratio IC50 of 7.9.
Molecule `Cn1c(Nc2cccc(-c3ccccc3)c2)cc(=O)n(O)c1=O` has a Ratio IC50 of 2.6.
`COc1cc(OC)cc(-c2ccc(Nc3cc(=O)n(O)c(=O)[nH]3)cc2)c1` showed a Ratio IC50 of 184.
For `Cn1c(Nc2ccc(-c3cccc(C#N)c3)cc2)cc(=O)n(O)c1=O`, the Ratio IC50 was 25.
`COc1cccc(OC)c1-c1cccc(Nc2cc(=O)n(O)c(=O)[nH]2)c1` gave a Ratio IC50 of 2.6.

System: Human immunodeficiency virus 1
Assay: Selectivity index, ratio of IC50 for inhibition of polymerase activity of HIV1 reverse transcriptase to IC50 for inhibition of RNase H activity of full length recombinant HIV1 reverse transcriptase
Work on `Cc1ccc(-c2ccc(Nc3cc(=O)n(O)c(=O)[nH]3)cc2)cc1` yielded a Ratio IC50 of 14.
`COc1ccc(-c2cccc(Nc3cc(=O)n(O)c(=O)[nH]3)c2)cc1` showed a Ratio IC50 of 32.
With `O=c1cc(Nc2cccc(-c3ccc(F)cc3)c2)[nH]c(=O)n1O` the Ratio IC50 was 33.

From ChEMBL document CHEMBL4428027, “3-Hydroxypyrimidine-2,4-diones as Selective Active Site Inhibitors of HIV Reverse Transcriptase-Associated RNase H: Design, Synthesis, and Biochemical Evaluations” (J Med Chem, 2016)
